Measurements from BindingDB's records for PubMed 7796807 (Synaptic Pharmaceutical, 1995).

Target: Neuropeptide Y receptor type 2 (Homo sapiens, UniProt P49146)

CC[C@H](C)[C@H](NC(=O)[C@H](Cc1ccc(O)cc1)NC(=O)[C@H](CCCN=C(N)N)NC(=O)[C@H](CCCNC(=N)N)NC(=O)[C@H](CC(C)C)NC(=O)[C@H](CC(=O)O)NC(=O)[C@H](C)NC(=O)[C@H](C)NC(=O)[C@H](Cc1ccc(O)cc1)NC(=O)[C@H](CCC(N)=O)NC(=O)[C@H](C)NC(=O)[C@H](CCSC)NC(=O)[C@H](CCC(N)=O)NC(=O)[C@H](CCC(=O)O)NC(=O)[C@@H]1CCCN1C(=O)[C@@H](NC(=O)[C@H](C)NC(=O)[C@H](CC(N)=O)NC(=O)[C@H](CC(=O)O)NC(=O)CNC(=O)[C@@H]1CCCN1C(=O)[C@H](Cc1ccc(O)cc1)NC(=O)[C@@H](NC(=O)[C@@H]1CCCN1C(=O)[C@H](CCC(=O)O)NC(=O)[C@H](CC(C)C)NC(=O)[C@@H]1CCCN1C(=O)[C@H](C)N)C(C)C)[C@@H](C)O)C(=O)N[C@@H](CC(N)=O)C(=O)N[C@@H](CCSC)C(=O)N[C@H](C(=O)N[C@H](C(=O)N[C@@H](CCCN=C(N)N)C(=O)N[C@@H](CCC(N)=O)C(=O)N[C@@H](CCCN=C(N)N)C(=O)N[C@@H](Cc1ccc(O)cc1)C(N)=O)[C@@H](C)O)[C@@H](C)CC [PP [Ile31,Gln34], human] was tested, and the Ki was 19.9 nM.
